pEC50: −log10 of the molar value. Where two headings read alike, the source gives them in different places.
How the values were obtained:
[1] = molecular target: T1, α7^L131G,Q139L,Y217F-5HT3 H163K (Homo sapiens, UniProt P36544, H163K/L131G/M226I/Q139L/T225I/Y217F); assay: EC50 dose response, PSAM4-5HT3 with additional mutations; type: cell-based; settings: additional mutation H163K; read-out: EC50s (SEM) for additional mutations of α7^L131G, Q139L, Y217F -5HT3
T1 construct: expressed in transfected cells; host or cells: HEK 293

Chains of the proteins cited; added tags and fusions are not shown. A line that says so, or that is headed by a name, gives the form on record, which may keep a tag or linker.
UniProt P36544, with tags, fused parts or gaps L131G/Q139L/H163K/Y217F/T225I/M226I limits assumed: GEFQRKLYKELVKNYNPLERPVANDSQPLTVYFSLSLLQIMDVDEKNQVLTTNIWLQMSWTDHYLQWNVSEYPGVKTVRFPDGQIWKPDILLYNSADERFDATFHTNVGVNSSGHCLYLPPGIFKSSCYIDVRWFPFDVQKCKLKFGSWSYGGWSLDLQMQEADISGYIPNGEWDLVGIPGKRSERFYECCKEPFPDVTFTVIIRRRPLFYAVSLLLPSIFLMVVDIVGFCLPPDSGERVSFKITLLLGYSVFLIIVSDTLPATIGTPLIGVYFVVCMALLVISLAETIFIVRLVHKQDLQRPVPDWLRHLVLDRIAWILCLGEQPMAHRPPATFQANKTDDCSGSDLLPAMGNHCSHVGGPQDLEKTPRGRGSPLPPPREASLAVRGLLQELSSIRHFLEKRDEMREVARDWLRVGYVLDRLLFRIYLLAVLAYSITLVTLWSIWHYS
UniProt P36544, with tags, fused parts or gaps L131G/Q139L/W171Y/T225I/M226I limits assumed: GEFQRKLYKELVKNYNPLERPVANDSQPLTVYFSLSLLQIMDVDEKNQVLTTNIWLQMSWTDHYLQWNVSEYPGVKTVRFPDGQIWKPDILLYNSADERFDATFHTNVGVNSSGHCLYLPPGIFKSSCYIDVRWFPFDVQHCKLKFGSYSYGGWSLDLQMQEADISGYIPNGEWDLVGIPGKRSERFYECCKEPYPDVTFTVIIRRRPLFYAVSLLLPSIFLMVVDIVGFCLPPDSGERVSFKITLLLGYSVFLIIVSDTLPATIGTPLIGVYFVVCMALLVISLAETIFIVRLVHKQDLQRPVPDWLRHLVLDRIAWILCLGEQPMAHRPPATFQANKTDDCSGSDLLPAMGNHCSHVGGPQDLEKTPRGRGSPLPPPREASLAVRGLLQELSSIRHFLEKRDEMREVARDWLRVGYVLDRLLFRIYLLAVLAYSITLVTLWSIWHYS
UniProt P36544, with tags, fused parts or gaps L131G/Q139L/S172A/Y217F/T225I/M226I limits assumed: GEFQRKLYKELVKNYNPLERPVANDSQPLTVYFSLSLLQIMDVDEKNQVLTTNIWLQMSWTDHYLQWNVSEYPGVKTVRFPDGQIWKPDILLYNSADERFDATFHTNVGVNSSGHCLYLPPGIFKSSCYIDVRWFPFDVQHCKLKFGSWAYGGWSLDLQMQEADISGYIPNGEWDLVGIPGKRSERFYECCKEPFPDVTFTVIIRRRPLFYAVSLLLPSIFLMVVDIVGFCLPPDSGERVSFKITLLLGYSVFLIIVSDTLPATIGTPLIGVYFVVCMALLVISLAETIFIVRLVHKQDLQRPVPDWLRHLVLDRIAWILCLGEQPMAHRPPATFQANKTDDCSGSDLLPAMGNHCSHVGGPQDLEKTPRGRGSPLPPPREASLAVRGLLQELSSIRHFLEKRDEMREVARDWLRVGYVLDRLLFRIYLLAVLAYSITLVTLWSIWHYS
UniProt P36544, with tags, fused parts or gaps L131G/Q139L/V154I/R155Y/W156N/S172A/Y217F/T225I/M226I limits assumed: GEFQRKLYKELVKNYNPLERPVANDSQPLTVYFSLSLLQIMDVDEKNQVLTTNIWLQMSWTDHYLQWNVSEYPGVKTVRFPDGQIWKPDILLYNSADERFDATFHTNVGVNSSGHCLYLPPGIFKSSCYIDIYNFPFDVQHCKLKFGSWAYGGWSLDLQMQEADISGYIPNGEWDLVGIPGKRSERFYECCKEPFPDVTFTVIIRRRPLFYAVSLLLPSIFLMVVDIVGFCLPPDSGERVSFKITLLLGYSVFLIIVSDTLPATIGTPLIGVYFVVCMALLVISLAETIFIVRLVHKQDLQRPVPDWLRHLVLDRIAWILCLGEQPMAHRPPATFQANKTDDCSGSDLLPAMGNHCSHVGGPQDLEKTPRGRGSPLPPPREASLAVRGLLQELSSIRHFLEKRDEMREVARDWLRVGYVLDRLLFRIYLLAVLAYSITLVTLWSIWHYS
UniProt P36544, with tags, fused parts or gaps L131G/Q139L/Y217A/T225I/M226I limits assumed: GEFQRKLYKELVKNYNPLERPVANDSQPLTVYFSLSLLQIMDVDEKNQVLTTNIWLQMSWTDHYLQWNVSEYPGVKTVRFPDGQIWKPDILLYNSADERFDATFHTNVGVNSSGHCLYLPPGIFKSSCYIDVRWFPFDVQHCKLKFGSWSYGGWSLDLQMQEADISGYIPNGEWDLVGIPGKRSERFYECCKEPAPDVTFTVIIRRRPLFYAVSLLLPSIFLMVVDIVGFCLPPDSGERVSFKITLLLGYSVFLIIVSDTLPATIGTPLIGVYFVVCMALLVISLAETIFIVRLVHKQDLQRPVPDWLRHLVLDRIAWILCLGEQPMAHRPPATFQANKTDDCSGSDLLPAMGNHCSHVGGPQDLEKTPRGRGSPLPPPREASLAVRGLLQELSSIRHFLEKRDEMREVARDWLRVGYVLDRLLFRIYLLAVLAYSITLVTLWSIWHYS
UniProt P36544, with tags, fused parts or gaps L131G/Q139L/V154I/R155Y/W156N/Y217F/T225I/M226I limits assumed: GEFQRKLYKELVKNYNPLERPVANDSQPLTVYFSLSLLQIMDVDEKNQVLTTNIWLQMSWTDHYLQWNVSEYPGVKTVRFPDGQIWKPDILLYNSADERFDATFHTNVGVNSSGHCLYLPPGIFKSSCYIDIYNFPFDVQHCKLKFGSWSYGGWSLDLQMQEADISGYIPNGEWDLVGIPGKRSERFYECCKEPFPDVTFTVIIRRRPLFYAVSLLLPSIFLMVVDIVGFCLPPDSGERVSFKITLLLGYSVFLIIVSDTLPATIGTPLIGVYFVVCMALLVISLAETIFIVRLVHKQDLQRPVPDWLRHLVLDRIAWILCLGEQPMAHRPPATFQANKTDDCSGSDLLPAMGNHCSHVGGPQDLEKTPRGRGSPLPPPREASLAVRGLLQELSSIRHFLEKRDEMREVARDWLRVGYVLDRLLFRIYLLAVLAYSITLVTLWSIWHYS
UniProt P36544, with tags, fused parts or gaps L131G/Q139L/H163S/Y217F/T225I/M226I limits assumed: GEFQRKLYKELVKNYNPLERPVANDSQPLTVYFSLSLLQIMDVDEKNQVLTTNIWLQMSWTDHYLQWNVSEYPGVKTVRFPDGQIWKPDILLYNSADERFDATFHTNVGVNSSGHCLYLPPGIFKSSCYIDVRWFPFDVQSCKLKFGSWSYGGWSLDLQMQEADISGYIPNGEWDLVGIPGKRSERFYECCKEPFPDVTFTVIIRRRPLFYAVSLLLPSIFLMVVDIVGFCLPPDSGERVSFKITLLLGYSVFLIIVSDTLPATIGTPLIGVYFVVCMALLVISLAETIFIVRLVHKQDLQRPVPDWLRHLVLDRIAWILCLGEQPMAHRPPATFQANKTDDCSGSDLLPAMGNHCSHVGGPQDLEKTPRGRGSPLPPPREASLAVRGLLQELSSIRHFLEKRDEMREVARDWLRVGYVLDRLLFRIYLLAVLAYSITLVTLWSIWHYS
UniProt P36544, with tags, fused parts or gaps L131G/Q139L/H163T/S172A/Y217F/T225I/M226I limits assumed: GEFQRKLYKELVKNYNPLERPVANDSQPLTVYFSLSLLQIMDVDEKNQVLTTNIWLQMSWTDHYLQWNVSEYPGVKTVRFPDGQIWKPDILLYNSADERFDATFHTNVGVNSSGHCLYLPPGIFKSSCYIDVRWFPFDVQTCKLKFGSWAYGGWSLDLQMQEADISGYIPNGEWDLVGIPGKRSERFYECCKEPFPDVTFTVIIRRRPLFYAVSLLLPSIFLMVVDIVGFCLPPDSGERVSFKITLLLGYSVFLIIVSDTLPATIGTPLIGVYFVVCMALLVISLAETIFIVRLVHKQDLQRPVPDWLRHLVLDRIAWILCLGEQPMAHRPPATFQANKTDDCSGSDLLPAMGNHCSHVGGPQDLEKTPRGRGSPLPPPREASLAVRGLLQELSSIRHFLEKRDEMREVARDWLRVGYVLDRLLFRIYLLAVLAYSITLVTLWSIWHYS
UniProt P36544, with tags, fused parts or gaps L131G/Q139L/H163T/S172V/Y217F/T225I/M226I limits assumed: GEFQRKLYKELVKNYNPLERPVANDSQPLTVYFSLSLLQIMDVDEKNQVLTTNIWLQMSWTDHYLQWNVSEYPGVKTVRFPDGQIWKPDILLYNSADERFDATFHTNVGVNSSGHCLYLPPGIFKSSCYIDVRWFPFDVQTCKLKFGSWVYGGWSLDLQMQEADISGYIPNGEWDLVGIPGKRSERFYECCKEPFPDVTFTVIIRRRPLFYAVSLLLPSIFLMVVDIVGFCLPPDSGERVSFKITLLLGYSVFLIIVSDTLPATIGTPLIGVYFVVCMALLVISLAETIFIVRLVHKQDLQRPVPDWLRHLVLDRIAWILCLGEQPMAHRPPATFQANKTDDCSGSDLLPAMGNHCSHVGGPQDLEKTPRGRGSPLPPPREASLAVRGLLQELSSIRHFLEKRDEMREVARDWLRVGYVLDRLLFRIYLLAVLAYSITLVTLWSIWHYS
UniProt P36544, with tags, fused parts or gaps L131G/Q139L/H163R/Y217F/T225I/M226I limits assumed: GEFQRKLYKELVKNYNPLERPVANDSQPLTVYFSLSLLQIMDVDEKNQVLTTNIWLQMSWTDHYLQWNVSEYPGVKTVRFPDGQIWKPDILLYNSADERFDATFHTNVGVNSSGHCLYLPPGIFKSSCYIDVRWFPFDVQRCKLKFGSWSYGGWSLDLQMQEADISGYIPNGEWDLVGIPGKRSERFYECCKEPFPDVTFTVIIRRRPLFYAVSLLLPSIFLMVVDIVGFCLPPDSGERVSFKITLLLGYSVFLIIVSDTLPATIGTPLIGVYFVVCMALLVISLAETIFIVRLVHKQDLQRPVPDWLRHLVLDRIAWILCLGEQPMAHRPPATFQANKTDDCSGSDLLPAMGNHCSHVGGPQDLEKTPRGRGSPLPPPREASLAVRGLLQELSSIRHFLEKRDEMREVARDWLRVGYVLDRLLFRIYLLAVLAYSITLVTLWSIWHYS
UniProt P36544, with tags, fused parts or gaps L131G/Q139L/H163A/Y217F/T225I/M226I limits assumed: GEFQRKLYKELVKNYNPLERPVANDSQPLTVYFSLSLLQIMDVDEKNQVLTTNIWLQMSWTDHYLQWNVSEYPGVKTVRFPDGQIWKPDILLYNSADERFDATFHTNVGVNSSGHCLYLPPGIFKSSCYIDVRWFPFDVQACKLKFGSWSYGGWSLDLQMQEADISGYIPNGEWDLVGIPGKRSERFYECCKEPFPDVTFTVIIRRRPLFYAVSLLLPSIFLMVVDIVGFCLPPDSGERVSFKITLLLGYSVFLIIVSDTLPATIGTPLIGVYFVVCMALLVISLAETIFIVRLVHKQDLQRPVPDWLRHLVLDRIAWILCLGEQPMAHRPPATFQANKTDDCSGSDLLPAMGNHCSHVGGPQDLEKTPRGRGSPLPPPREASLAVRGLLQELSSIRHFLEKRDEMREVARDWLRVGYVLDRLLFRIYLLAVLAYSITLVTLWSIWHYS
UniProt P36544, with tags, fused parts or gaps L131G/Q139L/W156N/Y217F/T225I/M226I limits assumed: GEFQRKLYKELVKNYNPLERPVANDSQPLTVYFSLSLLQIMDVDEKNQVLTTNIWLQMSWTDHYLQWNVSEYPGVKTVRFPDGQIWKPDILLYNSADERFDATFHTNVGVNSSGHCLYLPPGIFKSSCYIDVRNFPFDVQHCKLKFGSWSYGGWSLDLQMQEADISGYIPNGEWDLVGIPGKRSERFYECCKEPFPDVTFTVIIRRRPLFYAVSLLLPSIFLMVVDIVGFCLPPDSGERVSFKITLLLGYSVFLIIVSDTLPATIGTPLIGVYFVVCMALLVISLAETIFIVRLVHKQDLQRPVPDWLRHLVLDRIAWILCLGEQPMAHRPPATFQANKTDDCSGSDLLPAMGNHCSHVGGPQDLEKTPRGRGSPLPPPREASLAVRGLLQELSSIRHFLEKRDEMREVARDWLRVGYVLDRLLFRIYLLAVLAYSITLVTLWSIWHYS
UniProt P36544, with tags, fused parts or gaps L131G/Q139L/H163F/Y217F/T225I/M226I limits assumed: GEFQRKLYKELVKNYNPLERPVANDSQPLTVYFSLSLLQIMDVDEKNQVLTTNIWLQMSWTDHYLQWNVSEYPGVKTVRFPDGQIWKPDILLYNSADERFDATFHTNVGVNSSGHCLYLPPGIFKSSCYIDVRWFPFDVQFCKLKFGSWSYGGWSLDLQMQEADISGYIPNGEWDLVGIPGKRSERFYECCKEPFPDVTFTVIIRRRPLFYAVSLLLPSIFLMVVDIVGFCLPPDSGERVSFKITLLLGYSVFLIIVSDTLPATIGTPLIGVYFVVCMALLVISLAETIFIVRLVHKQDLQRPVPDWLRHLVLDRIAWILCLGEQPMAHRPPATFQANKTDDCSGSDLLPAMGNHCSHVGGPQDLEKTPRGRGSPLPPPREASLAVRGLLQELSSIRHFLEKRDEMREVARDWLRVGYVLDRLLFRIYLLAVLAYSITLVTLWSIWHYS
UniProt P36544, with tags, fused parts or gaps L131G/Q139L/H163T/Y217F/T225I/M226I limits assumed: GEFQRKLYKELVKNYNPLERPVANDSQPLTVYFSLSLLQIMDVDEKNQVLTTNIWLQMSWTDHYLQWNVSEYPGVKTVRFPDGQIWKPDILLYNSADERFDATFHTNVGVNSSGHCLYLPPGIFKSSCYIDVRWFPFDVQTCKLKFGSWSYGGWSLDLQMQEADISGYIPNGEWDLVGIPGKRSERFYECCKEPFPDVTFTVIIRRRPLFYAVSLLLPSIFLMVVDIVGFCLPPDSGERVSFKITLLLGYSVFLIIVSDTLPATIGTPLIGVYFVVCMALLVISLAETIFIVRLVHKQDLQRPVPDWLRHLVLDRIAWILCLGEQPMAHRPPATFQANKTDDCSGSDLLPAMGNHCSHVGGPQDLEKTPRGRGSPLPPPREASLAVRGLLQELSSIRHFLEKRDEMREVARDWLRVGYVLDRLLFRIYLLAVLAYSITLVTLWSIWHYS

[2] = molecular target: T2, α7-5HT3 L131G, Q139L, W171Y (Homo sapiens, UniProt P36544, L131G/M226I/Q139L/T225I/W171Y); assay: EC50 dose response, α7-5HT3 mutant; type: cell-based; settings: read-out: EC50s (SEM) for additional mutations of α7^L131G, Q139L, Y217F -5HT3
T2 construct: expressed in transfected cells; host or cells: HEK 293

[3] = molecular target: T3, α7^L131G,Q139L,Y217F-5HT3 S172A (Homo sapiens, UniProt P36544, L131G/M226I/Q139L/S172A/T225I/Y217F); assay: EC50 dose response, PSAM4-5HT3 with additional mutations; type: cell-based; settings: additional mutation S172A; read-out: EC50s (SEM) for additional mutations of α7^L131G, Q139L, Y217F -5HT3
T3 construct: expressed in transfected cells; host or cells: HEK 293

[4] = molecular target: T4, α7^L131G,Q139L,Y217F-5HT3 V154I, R155Y, W156N, S172A (Homo sapiens, UniProt P36544, L131G/M226I/Q139L/R155Y/S172A/T225I/V154I/W156N/Y217F); assay: as above; type: cell-based; settings: read-out: EC50s (SEM) for additional mutations of α7^L131G, Q139L, Y217F -5HT3
T4 construct: expressed in transfected cells; host or cells: HEK 293

[5] = molecular target: T5, α7-5HT3 L131G, Q139L, Y217A (Homo sapiens, UniProt P36544, L131G/M226I/Q139L/T225I/Y217A); assay: EC50 dose response, α7-5HT3 mutant; type: cell-based; settings: read-out: EC50s (SEM) for additional mutations of α7^L131G, Q139L, Y217F -5HT3
T5 construct: expressed in transfected cells; host or cells: HEK 293

[6] = molecular target: T6, α7^L131G,Q139L,Y217F-5HT3 V154I, R155Y, W156N (Homo sapiens, UniProt P36544, L131G/M226I/Q139L/R155Y/T225I/V154I/W156N/Y217F); assay: EC50 dose response, PSAM4-5HT3 with additional mutations; type: cell-based; settings: read-out: EC50s (SEM) for additional mutations of α7^L131G, Q139L, Y217F -5HT3
T6 construct: expressed in transfected cells; host or cells: HEK 293

[7] = molecular target: T7, α7^L131G,Q139L,Y217F-5HT3 H163S (Homo sapiens, UniProt P36544, H163S/L131G/M226I/Q139L/T225I/Y217F); assay: as above; type: cell-based; settings: additional mutation H163S; read-out: EC50s (SEM) for additional mutations of α7^L131G, Q139L, Y217F -5HT3
T7 construct: expressed in transfected cells; host or cells: HEK 293

[8] = molecular target: T8, α7^L131G,Q139L,Y217F-5HT3 H163T, S172A (Homo sapiens, UniProt P36544, H163T/L131G/M226I/Q139L/S172A/T225I/Y217F); assay: as above; type: cell-based; settings: read-out: EC50s (SEM) for additional mutations of α7^L131G, Q139L, Y217F -5HT3
T8 construct: expressed in transfected cells; host or cells: HEK 293

[9] = molecular target: T9, α7^L131G,Q139L,Y217F-5HT3 H163T, S172V (Homo sapiens, UniProt P36544, H163T/L131G/M226I/Q139L/S172V/T225I/Y217F); assay: as above; type: cell-based; settings: read-out: EC50s (SEM) for additional mutations of α7^L131G, Q139L, Y217F -5HT3
T9 construct: expressed in transfected cells; host or cells: HEK 293

[10] = molecular target: T10, α7^L131G,Q139L,Y217F-5HT3 H163R (Homo sapiens, UniProt P36544, H163R/L131G/M226I/Q139L/T225I/Y217F); assay: as above; type: cell-based; settings: additional mutation H163R; read-out: EC50s (SEM) for additional mutations of α7^L131G, Q139L, Y217F -5HT3
T10 construct: expressed in transfected cells; host or cells: HEK 293

[11] = molecular target: T11, α7^L131G,Q139L,Y217F-5HT3 H163A (Homo sapiens, UniProt P36544, H163A/L131G/M226I/Q139L/T225I/Y217F); assay: as above; type: cell-based; settings: additional mutation H163A; read-out: EC50s (SEM) for additional mutations of α7^L131G, Q139L, Y217F -5HT3
T11 construct: expressed in transfected cells; host or cells: HEK 293

[12] = molecular target: T12, α7^L131G,Q139L,Y217F-5HT3 W156N (Homo sapiens, UniProt P36544, L131G/M226I/Q139L/T225I/W156N/Y217F); assay: cell-based
T12 construct: expressed in transfected cells; host or cells: HEK 293

[13] = molecular target: T13, α7^L131G,Q139L,Y217F-5HT3 H163F (Homo sapiens, UniProt P36544, H163F/L131G/M226I/Q139L/T225I/Y217F); assay: EC50 dose response, PSAM4-5HT3 with additional mutations; type: cell-based; settings: additional mutation H163F; read-out: EC50s (SEM) for additional mutations of α7^L131G, Q139L, Y217F -5HT3
T13 construct: expressed in transfected cells; host or cells: HEK 293

[14] = molecular target: T14, α7^L131G,Q139L,Y217F-5HT3 H163T (Homo sapiens, UniProt P36544, H163T/L131G/M226I/Q139L/T225I/Y217F); assay: as above; type: cell-based; settings: additional mutation H163T; read-out: EC50s (SEM) for additional mutations of α7^L131G, Q139L, Y217F -5HT3
T14 construct: expressed in transfected cells; host or cells: HEK 293

[15] = molecular target: T15, α7^L131G,Q139L,Y217F-5HT3 W156N, H163T (Homo sapiens, UniProt P36544, H163T/L131G/M226I/Q139L/T225I/W156N/Y217F); assay: as above; type: cell-based; settings: read-out: EC50s (SEM) for additional mutations of α7^L131G, Q139L, Y217F -5HT3
T15 construct: expressed in transfected cells; host or cells: HEK 293

[16] = molecular target: T16, α7^L131G,Q139L,Y217F-5HT3 H163N (Homo sapiens, UniProt P36544, H163N/L131G/M226I/Q139L/T225I/Y217F); assay: as above; type: cell-based; settings: additional mutation H163N; read-out: EC50s (SEM) for additional mutations of α7^L131G, Q139L, Y217F -5HT3
T16 construct: expressed in transfected cells; host or cells: HEK 293

[17] = molecular target: T17, α7-5HT3 L131G, Q139L, W171F (Homo sapiens, UniProt P36544, L131G/M226I/Q139L/T225I/W171F); assay: EC50 dose response, α7-5HT3 mutant; type: cell-based; settings: read-out: EC50s (SEM) for additional mutations of α7^L131G, Q139L, Y217F -5HT3
T17 construct: expressed in transfected cells; host or cells: HEK 293

[18] = molecular target: T18, PSAM4-5HT3 (α7-5HT3^L131G,Q139L,Y217F) (Homo sapiens, UniProt P36544, L131G/M226I/Q139L/T225I/Y217F); assay: EC50 dose response of LGIC ligands on PSAM4-5HT3; type: cell-based; settings: read-out: EC50s (SEM) for additional mutations of α7^L131G, Q139L, Y217F -5HT3
T18 construct: expressed in transfected cells; host or cells: HEK 293

[19] = molecular target: T19, α7-5HT3 L131G, Q139L, Y217N (Homo sapiens, UniProt P36544, L131G/M226I/Q139L/T225I/Y217N); assay: EC50 dose response, α7-5HT3 mutant; type: cell-based; settings: read-out: EC50s (SEM) for additional mutations of α7^L131G, Q139L, Y217F -5HT3
T19 construct: 5HT3 ion pore domain (fusion partner); expressed in transfected cells

[20] = molecular target: T20, α7^L131G,Q139L,Y217F-5HT3 S172V (Homo sapiens, UniProt P36544, L131G/M226I/Q139L/S172V/T225I/Y217F); assay: EC50 dose response, PSAM4-5HT3 with additional mutations; type: cell-based; settings: additional mutation S172V; read-out: EC50s (SEM) for additional mutations of α7^L131G, Q139L, Y217F -5HT3
T20 construct: expressed in transfected cells; host or cells: HEK 293

[21] = molecular target: T21, α7-5HT3 L131G, Q139L, Y217V (Homo sapiens, UniProt P36544, L131G/M226I/Q139L/T225I/Y217V); assay: EC50 dose response, α7-5HT3 mutant; type: cell-based; settings: read-out: EC50s (SEM) for additional mutations of α7^L131G, Q139L, Y217F -5HT3
T21 construct: 5HT3 ion pore domain (fusion partner); expressed in transfected cells; HEK 293 is named only for the electrophysiology

[22] = molecular target: T22, α7^L131G,Q139L,Y217F-5HT3 S172I (Homo sapiens, UniProt P36544, L131G/M226I/Q139L/S172I/T225I/Y217F); assay: EC50 dose response, PSAM4-5HT3 with additional mutations; type: cell-based; settings: additional mutation S172I; read-out: EC50s (SEM) for additional mutations of α7^L131G, Q139L, Y217F -5HT3
T22 construct: expressed in transfected cells; host or cells: HEK 293

[23] = molecular target: T23, α7^L131G,Q139L,Y217F-5HT3 H163D (Homo sapiens, UniProt P36544, H163D/L131G/M226I/Q139L/T225I/Y217F); assay: as above; type: cell-based; settings: additional mutation H163D; read-out: EC50s (SEM) for additional mutations of α7^L131G, Q139L, Y217F -5HT3
T23 construct: expressed in transfected cells; host or cells: HEK 293

[24] = molecular target: T24, α7^L131G,Q139L,Y217F-5HT3 H163V (Homo sapiens, UniProt P36544, H163V/L131G/M226I/Q139L/T225I/Y217F); assay: as above; type: cell-based; settings: additional mutation H163V; read-out: EC50s (SEM) for additional mutations of α7^L131G, Q139L, Y217F -5HT3
T24 construct: expressed in transfected cells; host or cells: HEK 293

[25] = molecular target: T25, α7^L131G,Q139L,Y217F-5HT3 V154L, R155Y, W156Q (Homo sapiens, UniProt P36544, L131G/M226I/Q139L/R155Y/T225I/V154L/W156Q/Y217F); assay: as above; type: cell-based; settings: read-out: EC50s (SEM) for additional mutations of α7^L131G, Q139L, Y217F -5HT3
T25 construct: expressed in transfected cells; host or cells: HEK 293

[26] = molecular target: T26, α7-5HT3 L131G, Q139L, Y217H (Homo sapiens, UniProt P36544, L131G/M226I/Q139L/T225I/Y217H); assay: EC50 dose response, α7-5HT3 mutant; type: cell-based; settings: read-out: EC50s (SEM) for additional mutations of α7^L131G, Q139L, Y217F -5HT3
T26 construct: expressed in transfected cells; host or cells: HEK 293

[27] = molecular target: T27, α7^L131G,Q139L,Y217F-5HT3 V154I, R155Y, W156N, S172V (Homo sapiens, UniProt P36544, L131G/M226I/Q139L/R155Y/S172V/T225I/V154I/W156N/Y217F); assay: EC50 dose response, PSAM4-5HT3 with additional mutations; type: cell-based; settings: read-out: EC50s (SEM) for additional mutations of α7^L131G, Q139L, Y217F -5HT3
T27 construct: expressed in transfected cells; host or cells: HEK 293

For `c1cnc2cc3c(cc2n1)[C@@H]1CNC[C@H]3C1` [Varenicline, varenicline, reference compound], the pEC50 [1] was 8.30, the pEC50 [2] was less than 7.00 and the pEC50 [3] was 8.31. The pEC50 [4] was 7.96, the pEC50 [5] was less than 7.00 and the pEC50 [6] was 8.07. For the same compound, the pEC50 [7] was 8.19, the pEC50 [8] was 8.24 and the pEC50 [9] was 8.05. It also gave a pEC50 [10] of 8.21, a pEC50 [11] of 8.27 and a pEC50 [12] of 8.12. The pEC50 [13] was 8.21, the pEC50 [14] was 7.62 and the pEC50 [15] was 8.05. For the same compound, the pEC50 [16] was 8.44, the pEC50 [17] was less than 7.00 and the pEC50 ([18]; PSAM4-5HT3 (no additional mutation)) was 8.44. It also gave a pEC50 ([18]; line L131G, Q139L, Y217F (same values as PSAM4-5HT3 line)) of 8.44, a pEC50 [19] of less than 7.00 and a pEC50 [20] of 8.42. The pEC50 [21] was less than 7.00, the pEC50 [22] was 7.82 and the pEC50 [23] was 8.42. For the same compound, the pEC50 [24] was 8.14, the pEC50 [25] was 8.12 and the pEC50 [26] was less than 7.00. It also gave a pEC50 [27] of 7.89.

Reference: US20250145687A1, “MODIFIED LIGAND-GATED ION CHANNELS AND METHODS OF USE” (Howard Hughes Medical Institute, priority 2022, published 2025)
